Sequences of proteins named here, by UniProt entry; tags and fusion partners are left off. Residues count along the entry.
UniProt P25774, 115-331 limits assumed: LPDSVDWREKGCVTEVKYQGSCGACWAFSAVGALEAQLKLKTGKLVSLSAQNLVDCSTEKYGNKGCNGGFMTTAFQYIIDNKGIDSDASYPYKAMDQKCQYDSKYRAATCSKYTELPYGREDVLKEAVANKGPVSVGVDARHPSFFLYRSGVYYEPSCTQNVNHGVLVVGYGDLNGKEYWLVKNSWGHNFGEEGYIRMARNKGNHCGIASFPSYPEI

According to patent publication US10172843B2, “Piperidine derivatives” (Hoffmann-La Roche Inc., priority 2014, dated 2019):

Target: human Cat S (Homo sapiens (Human), UniProt P25774)
Assay: Cathepsin enzyme inhibition assay (fluorogenic peptide substrate)
Format: biochemical
Conditions: read-out: CatS IC50, enzyme 1 nM, substrate Z-Val-Val-Arg-AMC, pH 6.5

With `Cc1ccc(-c2nc(CN3CCC(n4c(=O)[nH]c5cc(Cl)ccc54)CC3)c(C)[nH]2)cc1` the IC50 was 4.07 µM.
